This note sets out measurements from IntAct's records for PubMed 19165148.

B1: Ultraviolet-B receptor UVR8 (Arabidopsis thaliana (Mouse-ear cress)), Q9FN03 (parent)
chain: MAEDMAADEVTAPPRKVLIISAGASHSVALLSGDIVCSWGRGEDGQLGHGDAEDRPSPTQLSALDGHQIVSVTCGADHTVAYSQSGMEVYSWGWGDFGRLGHGNSSDLFTPLPIKALHGIRIKQIACGDSHCLAVTMEGEVQSWGRNQNGQLGLGDTEDSLVPQKIQAFEGIRIKMVAAGAEHTAAVTEDGDLYGWGWGRYGNLGLGDRTDRLVPERVTSTGGEKMSMVACGWRHTISVSYSGALYTYGWSKYGQLGHGDLEDHLIPHKLEALSNSFISQISGGWRHTMALTSDGKLYGWGWNKFGQVGVGNNLDQCSPVQVRFPDDQKVVQVSCGWRHTLAVTERNNVFAWGRGTNGQLGIGESVDRNFPKIIEALSVDGASGQHIESSNIDPSSGKSWVSPAERYAVVPDETGLTDGSSKGNGGDISVPQTDVKRVRI
partner: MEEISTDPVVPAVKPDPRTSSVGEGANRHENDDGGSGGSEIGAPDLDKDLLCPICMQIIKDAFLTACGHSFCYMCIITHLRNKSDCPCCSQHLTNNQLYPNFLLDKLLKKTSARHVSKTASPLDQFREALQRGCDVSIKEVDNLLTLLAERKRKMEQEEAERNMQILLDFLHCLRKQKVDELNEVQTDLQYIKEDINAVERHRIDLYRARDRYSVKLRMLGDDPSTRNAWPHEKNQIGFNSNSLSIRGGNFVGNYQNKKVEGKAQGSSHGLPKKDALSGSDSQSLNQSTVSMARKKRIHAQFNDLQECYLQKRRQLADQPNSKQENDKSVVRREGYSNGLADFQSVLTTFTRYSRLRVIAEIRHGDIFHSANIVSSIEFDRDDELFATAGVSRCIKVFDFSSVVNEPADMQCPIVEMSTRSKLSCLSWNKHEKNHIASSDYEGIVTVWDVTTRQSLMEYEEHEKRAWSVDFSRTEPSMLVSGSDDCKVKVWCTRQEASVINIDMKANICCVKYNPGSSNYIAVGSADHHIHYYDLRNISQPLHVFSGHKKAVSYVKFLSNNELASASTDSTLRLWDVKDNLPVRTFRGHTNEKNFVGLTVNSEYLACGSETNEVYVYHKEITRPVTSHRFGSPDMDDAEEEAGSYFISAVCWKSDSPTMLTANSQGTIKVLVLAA
B2: E3 ubiquitin-protein ligase COP1 (Arabidopsis thaliana (Mouse-ear cress)), P43254 (parent)
chain: B1 partner
partner: B1 chain

Variants of B1 are the subject of the first assay. Particulars: with cop1_arath COP1, P43254.
As to G145S, the “effect of a mutation on the interaction” value is “disrupting interaction”.
On the same count and under the same terms, for G202R the value was “disrupting interaction”.

In the next assay the parent is B2. The following applies: with uvr8_arath UVR8, Q9FN03.
Consider G608R, for which the “effect of a mutation on the interaction” value is “disrupting interaction”.
